Measurements: article PMC6609550, “Blockade of the forward Na^+/Ca^2+ exchanger suppresses the growth of glioblastoma cells through Ca^2+‐mediated cell death” (British Journal of Pharmacology, 2019)

Columns and labels:
[1] = system: U87 cells; assay: Cell cycle assay (PI staining, flow cytometry) of U87 cells; assay type: cell-based, Human
Method: (§1) U87 cells were seeded in six‐well plates (Corning, Corning, NY, USA) with 1 × 10^6 cells per well and treated with NCX blockers, BAPTA‐AM, or MAPK inhibitors. Drug treatment was performed by the person who is blinded to the experimental groups. After treatment, cells were harvested in 15‐ml tubes and washed with cold sterile PBS. After being centrifuged, cells were fixed with 70% ethanol […] at 4°C for at least 1 hr. For propidium iodide (PI) staining, cells were washed one time with PBS and then were treated with ribonuclease A (RNase; 100 μg·ml^−1) for 30 min. PI (10 μg·ml^−1) was added, and stained cells were kept in the dark at 4°C until analysis. The number of cells analysed for each sample was 10,000 events. FACS analysis was performed using the Coulter CytoFlexS flow cytometer (Beckman Coulter, CA, USA), and the percentage of cells in the G0/G1, S, and G2/M phases was determined using cell cycle analysis software, ModFit LT 5.0 (Verity Software House, Topsham, ME, USA). […] Apoptosis was analysed by Coulter CytoFlexS flow cytometer (Beckman Coulter) for at least 10,000 events, and data were analysed with the software, CyExpert 2.0 (Beckman Coulter).

[2] = system: U87 cells; assay: Annexin V–FITC/PI apoptosis assay of U87 cells; assay type: cell-based, Human
Method: as §1

## O=[N+]([O-])c1ccc(-c2nc(-c3ccncc3)c(-c3ccc(F)cc3)[nH]2)cc1 [PD169316]
[1]
  Effect on bepridil-induced G0/G1 cell cycle arrest: prevented
[2]
  Effect on apoptosis (Annexin V+ cells), compound alone: did not activate apoptosis
  Effect on bepridil-induced apoptosis: not
